The record followed here is patent US20220354835A1, “COMPOUNDS FOR DEGRADING TAU PROTEIN AGGREGATES AND USES THEREOF” (Aprinoia Therapeutics Limited, priority 2019, published 2022).

Chains of the proteins cited; added tags and fusions are not shown. Residues count along the entry.
UniProt P10636, 1-441 isoform 8: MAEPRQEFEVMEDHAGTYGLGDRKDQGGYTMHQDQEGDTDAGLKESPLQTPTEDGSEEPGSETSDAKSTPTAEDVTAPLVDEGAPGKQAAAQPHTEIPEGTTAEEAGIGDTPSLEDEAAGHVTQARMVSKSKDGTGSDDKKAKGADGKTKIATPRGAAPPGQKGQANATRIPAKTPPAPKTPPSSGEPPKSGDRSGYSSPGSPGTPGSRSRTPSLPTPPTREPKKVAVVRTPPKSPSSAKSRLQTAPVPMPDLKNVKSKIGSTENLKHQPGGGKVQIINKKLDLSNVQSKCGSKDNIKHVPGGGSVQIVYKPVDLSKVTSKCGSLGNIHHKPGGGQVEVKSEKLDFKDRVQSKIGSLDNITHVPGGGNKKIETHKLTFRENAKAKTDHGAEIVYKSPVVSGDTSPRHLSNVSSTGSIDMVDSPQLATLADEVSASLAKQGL

As a reminder, the Kd is the equilibrium constant for the complex coming apart.

For assay [1], the target named is T1, heparin-induced aggregated tau (aTau), full-length 2N4R human Tau (Homo sapiens, UniProt P10636). Description: In vitro fluorometric aTau binding assay. Particulars: 0.04 μM aTau, serially diluted compound 10 to 0.00017 μM, 37° C. 1 hour, fluorescence. As for the experimental part: (§1) (A) Expression and purification of human Tau: 1 mM IPTG (Sangon Biotech, Cat. No A100487) was used to induce production of tau by bacteria (BL21, Invitrogen, Cat. No C600003) transformed with a full-length 2N4R tau expression plasmid. After 3 hours, cell pellet was resuspended in lysis buffer (100 mM PIPES, 1 mM EGTA, 1 mM MgSO4, pH 6.8) and lysed by sonication followed by centrifugation (15,000 rpm, 15 min, 4° C.). The supernatant was then placed in a boiling water bath for 20 min, followed by centrifugation (15,000 rpm, 15 min, 4° C.). […] Protein concentration was determined by UV absorption. […]
(D) In vitro fluorometric aTau binding assays: 2 μM aTau was diluted to 0.04 μM with 30 mM Tris-HCl (pH 6.8), and then incubated with serially diluted compound (three-fold serial dilutions, from 10 to 0.00017 μM) in a 96-well plate (Corning, Cat. No 3573) at 37° C. for 1 hour. Fluorescence intensity (excitation/emission=370/500 nm) of APN-0729 was read by microplate spectrometer (EnSpire 2300, PerkinElmer). Compound Kd values were calculated using the following equation: Y=Bmax* X (Kd+X), where X is the concentration of compound; Y is the fluorescence signal of (compound+aTau)−(compound+DMSO); and Bmax is the maximum signal.

Assay [2] has as its target T1, heparin-induced aggregated tau (aTau), full-length 2N4R human Tau. In words: PBB5 competition assay. Particulars: 0.12 μM aTau. The procedure: as §1
(E) PBBS competition assay: 2 μM of aTau was diluted to 0.12 μM by […] (pH 6.8) and then incubated with 0.1 μM 2-(4-(2-(methylamino)pyridine-5-yl)-1,3-butadiene-1-yl)benzothiazole-6-ol (PBB5) and serially diluted compound (three-fold serial dilution, from 10 to 0.00017 μM) in a 96-well plate (Corning, Cat. No 3573) at 37° C. for 1 hour. Fluorescence intensity (excitation/emission=530/690 nm) of PBB5 was read by microplate spectrometer (EnSpire 2300, PerkinElmer). Percentage of competition was calculated using the following equation: (Max−well of compound alone)/(Max−Min)*100%, where Max=(Tau+PBB5) signals−(buffer+PBB5) signals; and Min=(buffer+PBB5) signals−(buffer+PBB5) signals. […]

Consider `CN(C)c1ccc2nc(-c3ccc(-c4ccc(NCCOCCN5C(=O)CCC(N6Cc7cc(O)ccc7C6=O)C5=O)nc4)cc3)sc2c1` (stereo not drawn), for which the Kd in assay [1] was 0.12 µM. Also, the “Competition Assay with PBB5: Bmax (%)” value in assay [2] (0.1 μM PBB5, compound up to 10 μM) is given as “=100%”. Moreover, the IC50 in assay [2] (read-out: Competition Assay with PBB5: PBB5, 0.1 μM PBB5, 37° C. 1 hour, PBB5 fluorescence 530/690 nm) stood at 0.55 µM.
